Read-outs that look alike come from different tables or passages of the source.
Assays:
C57BL6/J mice [1] = conditions: for Age (days) at 50% mortality / Age (days) at 90% mortality: 2% w/w AKG diet from 18 months of age; for Survival (survival curves vs. control): pooled female and male, two independent cohorts of aged mice, 2% CaAKG (w/w) diet from 18 months, P=0.032, P=0.022
Excerpt: The principle endpoint of health span and lifespan study was natural death or mice found dead at daily inspection or age at euthanasia (for mice deemed unlikely to survive for next 48 hr and are in enormous discomfort). The criteria for euthanasia were based on an independent assessment by a veterinarian, according to AAALAC guidelines and only where the condition of the animal was considered. Severe lethargy, rapid weight loss (over two weeks>20%), severe distended abdomen and body condition score with signs of pain (grimace), inability to move despite the stimuli, severe ulcer or bleeding tumor, sever temperature loss with abnormal breathing rate. Animal found dead or euthanized was necropsied for pathology score. No invasive measurements were performed on this population, n=180 animals (two cohorts of 90 animals). A sacrificed group were purchased at 14 months of age, baselined and grouped the following week. […] Animals were sacrificed and tissues were collected after 3 months of treatment. Food intake and body weight were measured on a biweekly and bimonthly basis for the duration of the study.
(§1) Python Software was used to extract all the health span data and create files compatible with R software for analysis. Data were analyzed using R, GraphPad Prism 7 and OASIS 2 software. Log-rank (Mantel-Cox) tests were used to analyze Kaplan-Meier curves, and a fisher's exact test was performed for maximum lifespan analysis (at 90% survival). […] Two-way analysis of variance (ANOVA) with Bonferroni post hoc correction was used for analysis between morbidity curves. The area under curve (AUC) of […] graphs were measured baselining at 18 months of age. The changes in AUC were used to calculate the percent compression of morbidity.

C57BL6/J mice [2] = conditions: for Age-dependent hair graying (fur color index): female mice, after 9 months of treatment; for Reduction of area under the frailty curve (proportion of life frail): frailty scores vs. percentage of lifespan, P<0.01
Excerpt: For the subjective properties of the assessments, all measurements were completely blinded. These assessments indicate age-associated deterioration of health and include evaluation of the animal musculoskeletal system, the vestibulocochlear/auditory systems, the ocular and nasal systems, the digestive system, the urogenital system, the respiratory system, signs of discomfort, body weight and body surface temperature. 0 is assigned if no sign of frailty is observed and the animal is healthy for that phenotype. A moderate phenotype and a severe phenotype is scored 0.5 and 1 respectively. Loss of temperature and weight were scored using standard deviation for the study (Table 2). All the phenotypes were scored as described before by Whitehead, J. C., et al., except for temperature and weight. Temperature and weights scoring: Briefly, for weight and temperature, the new scaling scores were used; Average and standard deviations (STDEV) were calculated sex specifically using our own baseline data sets (data collected before the start of the treatment mice at 18th month age). A decrease in temperature or weight (FIG. 3B, and FIG. 3D) within one STDEV is scored as a (0), a decrease bigger than one STDEV but smaller than 2 STDEV will be scored as a (0.5) and any decrease more than 2 STDEV is scored as a (1).
as §1
In order to assess healthspan, measurements were applied that are based on a clinically relevant frailty index. The frailty index (FI) consists of 31 phenotypes that are indicators of age-associated health deterioration, with each phenotype scored on a 0, 0.5 or 1 scale, based on its severity. Body weight and surface temperature were collected and converted to the same scoring scales (Table 2). All scorings were conducted in a blinded manner.
The 31-metrics share many characteristics of the human frailty indices and has been reported to progress similarly with aging in mice and humans. Measurements were repeated approximately every eight weeks, providing us with eight and seven sets of data respectively for male and female groups. To establish a baseline clinical assessment, a dataset was collected right before the start of the treatment at 18th months (FIG. 4A-FIG. 4D).
Since the age for onset of age-related phenotypes can be quite heterogeneous in mammals, frailty datasets were plotted not only as a function of chronological time, but also in proportion to the lifespan of each mouse by binning scores within ten percentile (e.g. scores collected between 60% and 70% of the animals' lifespans were binned and plotted at 65%), (FIG. 9A-FIG. 9B). This further aligns assessments with respect to the biologic age of the animal.

C57BL6/J mice [3] = conditions: Cohort-2; median life (28 months old)
Method: Metabolism was measured applying indirect calorimetry. Promethion metabolic cage system-Sable Systems International was used. The system is equipped with GA-3 small mammal gas analyzers for measurements of O2 (consumption) and CO2 (production). Energy expenditure, food intake, water consumption, body weight, physical activity and volunteer exercise were simultaneously recorded over 4 consecutive days (96 hours). Mice were housed individually in metabolic cages and accustomed to their environment a day before the start of recording. Data were analyzed using Sable System Expedata-P Data Analysis Software. Subsequently, CalR software, a free web tool was used for analysis of experiments using indirect calorimetry, to analyze the raw data, generate some plots and run statistical analysis.

senescent markers = conditions: tissues of old mice (sacrificed group); trends toward reduced levels in some tissues
heart and motor function = conditions: aged mice, male and female
[4] = female, Cohort-1, AKG vs. control
[5] = female, Cohort-2, AKG vs. control
[6] = male, Cohort-1, AKG vs. control
[7] = male, Cohort-2, AKG vs. control

O=C(O)CCC(=O)C(=O)O [AKG, 2-oxopentanedioic acid]
Age (days) at 50% mortality (C57BL6/J mice [1]; female, Cohort-1): 932 days
Age (days) at 90% mortality (C57BL6/J mice [1]; female, Cohort-1): 1109 days
Percentage survival increase from birth, age at 50% mortality (C57BL6/J mice [1]; [4]): 6.3%
Percentage survival increase from birth, age at 90% mortality (C57BL6/J mice [1]; [4]): 9%
Percentage survival increase from birth, age at 100% (C57BL6/J mice [1]; [4]): 10%
Percentage survival increase from inception of study, age at 50% mortality (C57BL6/J mice [1]; [4]): 16.6%
Percentage survival increase from inception of study, age at 90% mortality (C57BL6/J mice [1]; [4]): 19.7%
Percentage survival increase from inception of study, age at 100% (C57BL6/J mice [1]; [4]): 21%
Age (days) at 50% mortality (C57BL6/J mice [1]; female, Cohort-2): 902 days
Percentage survival increase from birth, age at 50% mortality (C57BL6/J mice [1]; [5]): 3.7%
Percentage survival increase from inception of study, age at 50% mortality (C57BL6/J mice [1]; [5]): 9.6%
Percentage survival increase from inception of study (AKG vs. Cntrl), age at 50% mortality (C57BL6/J mice [1]; male & female, Cohort-1): 9.7%
Percentage survival increase from inception of study (AKG vs. Cntrl), age at 90% mortality (C57BL6/J mice [1]; male & female, Cohort-1): 20.2%
Percentage survival increase from inception of study (AKG vs. Cntrl), age at 100% (C57BL6/J mice [1]; male & female, Cohort-1): 14.2%
Percentage survival increase in survival from birth (AKG vs. Cntrl), age at 50% mortality (C57BL6/J mice [1]; male & female, Cohort-1): 4.1%
Percentage survival increase in survival from birth (AKG vs. Cntrl), age at 90% mortality (C57BL6/J mice [1]; male & female, Cohort-1): 9.5%
Percentage survival increase in survival from birth (AKG vs. Cntrl), age at 100% (C57BL6/J mice [1]; male & female, Cohort-1): 7.2%
Age (days) at 50% mortality (C57BL6/J mice [1]; male & female, Cohort-1): 977 days
Age (days) at 90% mortality (C57BL6/J mice [1]; male & female, Cohort-1): 1116 days
Percentage survival increase in survival from birth (AKG vs. Cntrl), age at 50% mortality (C57BL6/J mice [1]; male & female, Cohort-2): 3.7%
Age (days) at 50% mortality (C57BL6/J mice [1]; male & female, Cohort-2): 870 days
Age (days) at 50% mortality (C57BL6/J mice [1]; male, Cohort-1): 995 days
Age (days) at 90% mortality (C57BL6/J mice [1]; male, Cohort-1): 1155 days
Percentage survival inception of study, age at 50% mortality (C57BL6/J mice [1]; [6]): 9.6%
Percentage survival inception of study, age at 90% mortality (C57BL6/J mice [1]; [6]): 16.4%
Percentage survival inception of study, age at 100% (C57BL6/J mice [1]; [6]): 11.2%
Percentage survival increase in survival from birth, age at 50% mortality (C57BL6/J mice [1]; [6]): 4.2%
Percentage survival increase in survival from birth, age at 90% mortality (C57BL6/J mice [1]; [6]): 8%
Percentage survival increase in survival from birth, age at 100% (C57BL6/J mice [1]; [6]): 6%
Age (days) at 50% mortality (C57BL6/J mice [1]; male, Cohort-2): 870 days
Percentage survival inception of study, age at 50% mortality (C57BL6/J mice [1]; [7]): 10.4%
Percentage survival increase in survival from birth, age at 50% mortality (C57BL6/J mice [1]; [7]): 3.7%
Survival (survival curves vs. control) (C57BL6/J mice [1]): extends lifespan and decreases mortality
Age-dependent hair graying (fur color index) (C57BL6/J mice [2]; first cohort): reverses the hair discoloration
Age-dependent hair graying (fur color index) (C57BL6/J mice [2]; second cohort): prevent the hair discoloration
Reduction of area under the frailty curve (proportion of life frail) (C57BL6/J mice [2]; females): 52%
Reduction of area under the frailty curve (proportion of life frail) (C57BL6/J mice [2]; males): 40%
Locomotion activity in metabolic cages (C57BL6/J mice [3]): improves locomotion
Senescent markers in tissues (qRT-PCR) (senescent markers): no significant changes

O=C([O-])CCC(=O)C(=O)[O-].[Ca+2] [CaAKG, Calcium alpha-ketoglutarate]
Improved survival from inception of CaAKG feeding (C57BL6/J mice [1]; female mice, first cohort, P=0.02): 19.4%
Percentage survival increase from inception of study, age at 50% mortality (C57BL6/J mice [1]; [5]): 9.6%
Percentage survival increase from inception of study (AKG vs. Cntrl), age at 50% mortality (C57BL6/J mice [1]; male & female, Cohort-1): 9.7%
Percentage survival increase from inception of study (AKG vs. Cntrl), age at 90% mortality (C57BL6/J mice [1]; male & female, Cohort-1): 20%
Percentage survival inception of study, age at 50% mortality (C57BL6/J mice [1]; [7]): 10.4%
Improved survival (extended) (C57BL6/J mice [1]; males, first cohort, not significant (P=0.18 and P=0.15)): 9.4%
Survival (survival curves vs. control) (C57BL6/J mice [1]): increases survival
Age-dependent hair graying (fur color index) (C57BL6/J mice [2]; first cohort): reverse age-dependent hair graying
Age-dependent hair graying (fur color index) (C57BL6/J mice [2]; second cohort): only prevented the hair graying and no reversal effect was detected
Locomotion activity in metabolic cages (C57BL6/J mice [3]): increased locomotion activity
Heart and motor function (treadmill exhaustion test, heart echocardiography) (heart and motor function): No significant adverse changes
